Assay results reported in patent US20240199722A1, “NANOPLATFORM FOR TARGETING MACROPHAGE AND COMPOSITION FOR PREVENTION OR TREATMENT OF METASTATIC CANCER” (SEOUL NATIONAL UNIVERSITY R&DB FOUNDATION, priority 2021, published 2024).

Columns and labels:
CD206 = molecular target: T1, CD206 (Mus musculus, UniProt Q61830); assay: In vitro uptake of the nanoplatform in 4T1, GM-BMM and M-BMM cells (specific target image, FIG. 4); assay type: cell-based
T1 construct: primary macrophages (M-BMM) differentiated into M-SCF, cells with high CD206 expression; endogenous in cells; host or cells: primary macrophages GM-BMM (low CD206) and M-BMM (high CD206); 4T1 mouse breast cancer cells as comparison
T1 sequence (Q61830 20-1456): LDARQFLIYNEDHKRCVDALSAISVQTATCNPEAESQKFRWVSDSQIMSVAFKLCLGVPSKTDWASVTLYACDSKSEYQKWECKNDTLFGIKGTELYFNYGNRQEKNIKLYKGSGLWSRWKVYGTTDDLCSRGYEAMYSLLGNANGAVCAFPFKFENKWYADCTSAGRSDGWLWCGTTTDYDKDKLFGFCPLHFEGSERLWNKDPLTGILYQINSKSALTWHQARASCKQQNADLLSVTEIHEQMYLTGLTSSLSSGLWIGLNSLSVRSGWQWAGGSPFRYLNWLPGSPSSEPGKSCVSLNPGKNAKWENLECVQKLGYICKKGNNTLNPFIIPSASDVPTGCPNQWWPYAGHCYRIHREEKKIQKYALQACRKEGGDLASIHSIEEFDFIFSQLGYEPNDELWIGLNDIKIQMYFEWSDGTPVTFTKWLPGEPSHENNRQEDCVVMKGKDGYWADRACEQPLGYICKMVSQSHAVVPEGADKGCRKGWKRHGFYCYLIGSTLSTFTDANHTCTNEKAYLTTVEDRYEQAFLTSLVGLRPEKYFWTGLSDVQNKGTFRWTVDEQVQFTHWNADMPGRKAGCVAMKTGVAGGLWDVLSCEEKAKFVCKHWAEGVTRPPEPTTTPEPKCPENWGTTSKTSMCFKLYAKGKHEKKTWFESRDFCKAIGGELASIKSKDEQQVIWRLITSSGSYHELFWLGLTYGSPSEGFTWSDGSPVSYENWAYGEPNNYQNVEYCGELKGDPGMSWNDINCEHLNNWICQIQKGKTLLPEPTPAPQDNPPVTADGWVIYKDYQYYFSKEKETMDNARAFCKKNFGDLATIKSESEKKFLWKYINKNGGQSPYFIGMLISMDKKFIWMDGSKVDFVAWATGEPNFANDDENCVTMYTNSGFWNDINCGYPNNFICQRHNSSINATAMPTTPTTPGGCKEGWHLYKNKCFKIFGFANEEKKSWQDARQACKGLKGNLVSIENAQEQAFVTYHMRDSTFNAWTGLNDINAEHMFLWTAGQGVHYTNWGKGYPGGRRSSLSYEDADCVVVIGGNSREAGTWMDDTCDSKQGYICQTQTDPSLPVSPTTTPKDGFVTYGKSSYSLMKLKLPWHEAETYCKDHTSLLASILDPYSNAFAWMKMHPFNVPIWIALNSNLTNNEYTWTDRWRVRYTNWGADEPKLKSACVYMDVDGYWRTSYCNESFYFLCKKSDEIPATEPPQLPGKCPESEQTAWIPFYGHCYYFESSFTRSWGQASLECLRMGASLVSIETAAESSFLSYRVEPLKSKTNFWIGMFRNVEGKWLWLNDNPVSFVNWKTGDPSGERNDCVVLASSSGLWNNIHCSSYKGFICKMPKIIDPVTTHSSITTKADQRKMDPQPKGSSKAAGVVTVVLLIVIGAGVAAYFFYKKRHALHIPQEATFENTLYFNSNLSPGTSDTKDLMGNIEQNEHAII
Description: An experiment was performed to confirm whether HSA-ADIBO conjugated with a mannosyl group, as obtained in Preparation Example 1 was targeted to tumor tissue.
The mouse breast cancer cell line 4T1, primary macrophages (GM-BMM) differentiated into GM-SCF, macrophages with relatively low CD206 expression, and primary macrophages (M-BMM) differentiated into M-SCF, cells with high CD206 expression, were prepared, respectively, and then the nanoplatform obtained in Preparation Example 1 was infused.
Referring to FIG. 4, it was confirmed that the uptake of the nanoplatform was low in cells with low CD206 expression, and the uptake of the nanoplatform was high in cells with high CD206 expression, confirming that the nanoplatform according to the present disclosure is capable of targeting CD206.

CD206 target macrophage = assay: Uptake and macrophage phenotype shift in M1- and M2-polarized macrophages (FIG. 5); assay type: cell-based
Description: In addition, the results of an experiment to confirm the activity targeting inflammatory type of macrophage of the albumin-based nanoplatform for targeting macrophages according to the present disclosure were shown in FIG. 5.
(M1 polarization, macrophages with low expression of CD206) and MSA^+ cells (M2 polarization, macrophages with high expression of CD206), respectively.
In addition, the MHCII^+, iNOS^+, and TNFα^+ data in FIG. 5 are indicators of the activity of M1-type of macrophages, and when the albumin platform into which mannose was introduced to M2-type macrophages was treated at different concentrations, it was confirmed that the expression level of the indicators showing M1 activity in M2-type of macrophages increased (MSA induces macrophage phenotype shift).

Kupffer cells = assay: In vivo biodistribution by PET or SPECT after tail vein administration to normal mice (FIG. 6, 7)
Description: An albumin-based nanoplatform, an albumin-based nanoplatform conjugated with a mannosyl group, and an albumin-based nanoplatform conjugated with a galactosyl group were each administered into a tail vein of mice (normal group), and changes in biodistribution over each of time were observed using PET (positron emission tomography) or SPECT (single-photon emission computed tomographt), and the results are shown in FIG. 6.
In addition, in order to clearly confirm the morphology, the liver tissue was sectioned to obtain a fluorescence image, and the results was shown in FIG. 7. A very clear image that was identical to the actual IHC result was able to be confirmed, and this was an image obtained by removing the liver after direct injection into an animal, which was not an ex-vivo result, and it is meaningful to confirm the actual action of mannosyl and galactosyl groups in the body.

[1] = tested on: macrophages at lung metastatic site; assay: Early diagnosis of cancer metastasis in the 4T1-luc model: FDG-PET versus 111In-MSA-FL SPECT/CT (FIG. 8); assay type: in vivo, mouse
Description: In order to verify the possibility of early diagnosis of cancer metastasis of the albumin-based nanoplatform conjugated with the mannosyl group, a model that may represent cancer metastasis was reproduced and confirmed through tissue staining whether it could actually reflect metastasis.
In order to compare the albumin-based nanoplatform for targeting macrophages (MSA) obtained in Preparation Example 1 with the diagnostic method using FDG, which has been previously used in nuclear medicine imaging, 4T1-luc, wherein a fluorescent gene was introduced into the breast cancer cell line 4T1, was prepared, and cancer modeling was performed by injecting it into the femur of a mouse. This animal model is known to naturally cause metastasis to secondary organs after transplanting cancer cells into mice, and is especially known to cause metastasis to the lung area, similar to the pattern of existing breast cancer.
A mixture of two compounds was injected into 7, 14, 21, and 28 days-age mice after modeling, and FDG-PET images and ^111In-MSA-FL (MSA to which indium isotope and fluorescence were introduced) SPECT/CT images were obtained, and shown in FIG. 8(a).
Very small volume macrophage entry sites or metastasis sites that could not be identified even with the previously widely used modalities MRI and CT could be identified with very high sensitivity using nuclear medicine imaging.
As a result, the diagnostic method using the albumin-based nanoplatform (MSA) for targeting macrophages was able to diagnose cancer metastasis on Day 21, but the diagnostic method using FDG was able to diagnose metastasis on Day 28, and it was confirmed that the diagnostic method using nanoplatform of the present disclosure can diagnose cancer metastasis earlier than the prior art. In particular, it was shown that the degree of metastasis can be reflected and expressed through nuclear medicine imaging and quantification.

lung metastasis = assay: Nuclear medicine imaging in Low meta and High meta models, cancer cells injected into tail vein (FIG. 9); assay type: in vivo, mice; conditions: isotopically labeled MSA
Description: In addition, in order to directly show the correlation between the degree of uptake of the metastatic site and the degree of metastasis of the MSA thus constructed, a model wherein cancer cells were directly injected into a tail vein of mice to directly inject the cancer cells into the lungs and immediately cause metastasis, rather than using the existing model of natural metastasis from the primary cancer to the lungs, were prepared. Low meta (low metastasis) and High meta (high metastasis) models were prepared by varying the number of injected cancer cells to obtain nuclear medicine images by injecting isotopically labeled MSA, and the results of nuclear medicine quantification were shown in FIG. 9.

Q: “MSA: HSA-ADIBO click-conjugated with Man-N3 (mannosyl groups), optionally with FNR648-N3 and/or radiolabelled NOTA-N3; Preparation Example 1” was tested. Which “uptake of the nanoplatform” value (CD206; cells with high CD206 expression) did it give?
A: high

Q: What about the “uptake of the nanoplatform” value (CD206; cells with low CD206 expression) of the same substance?
A: low

Q: And the “expression level of indicators of M1 activity (MHCII+, iNOS+, TNFα+)” value (CD206 target macrophage; M2-type macrophages treated at different concentrations)?
A: increased

Q: And the “uptake pattern according to MSA processing amount” value (CD206 target macrophage; MSA+ cells (M2 polarization, high expression of CD206))?
A: most cells ingested the added amount

Q: And the “MSA MFI, mean fluorescence intensity” value (CD206 target macrophage; MSA+ cells, according to the amount added)?
A: proportional to the amount added

Q: What about the “uptake pattern according to MSA processing amount” value (CD206 target macrophage; MSA- cells (M1 polarization, low expression of CD206)) of the same substance?
A: selective uptake was not achieved

Q: And the biodistribution over time (Kupffer cells)?
A: strong liver intake by Kupffer cells was confirmed over a long time

Q: What about the “time at which cancer metastasis could be diagnosed” value ([1]; day after modeling) of the same substance?
A: 21 days

Q: What about the “nuclear medicine signal/image in the lung area before metastasis” value ([1]; imaging on days 7, 14, 21, 28) of the same substance?
A: very clear images in the lung area on Day 21

Q: And the “uptake at the metastatic site, statistical significance” value ([1]; quantification FIG. 8(b))?
A: significant difference at each week

Q: And the “relation of intake to degree of metastasis” value (lung metastasis)?
A: there was a correlation between intake and degree of metastasis

Q: Which biodistribution over time (Kupffer cells) does the source give for “albumin-based nanoplatform conjugated with a galactosyl group: HSA-ADIBO click-conjugated with Gal-N3 (1-(2-Azidoethoxy)-beta-D-galactopyranose)” here?
A: hepatobiliary excretion is shown through the gall bladder
